Test results published in article PMC6400584, “Activation mechanism of ATP-sensitive K^+ channels explored with real-time nucleotide binding” (eLife, 2019).

The chains behind the UniProt entries cited, without tags or fusion partners. Where a name states a change or a piece, a line headed by the entry shows the natural chain unless it says otherwise.
UniProt Q09428, whole entry, stated change not applied: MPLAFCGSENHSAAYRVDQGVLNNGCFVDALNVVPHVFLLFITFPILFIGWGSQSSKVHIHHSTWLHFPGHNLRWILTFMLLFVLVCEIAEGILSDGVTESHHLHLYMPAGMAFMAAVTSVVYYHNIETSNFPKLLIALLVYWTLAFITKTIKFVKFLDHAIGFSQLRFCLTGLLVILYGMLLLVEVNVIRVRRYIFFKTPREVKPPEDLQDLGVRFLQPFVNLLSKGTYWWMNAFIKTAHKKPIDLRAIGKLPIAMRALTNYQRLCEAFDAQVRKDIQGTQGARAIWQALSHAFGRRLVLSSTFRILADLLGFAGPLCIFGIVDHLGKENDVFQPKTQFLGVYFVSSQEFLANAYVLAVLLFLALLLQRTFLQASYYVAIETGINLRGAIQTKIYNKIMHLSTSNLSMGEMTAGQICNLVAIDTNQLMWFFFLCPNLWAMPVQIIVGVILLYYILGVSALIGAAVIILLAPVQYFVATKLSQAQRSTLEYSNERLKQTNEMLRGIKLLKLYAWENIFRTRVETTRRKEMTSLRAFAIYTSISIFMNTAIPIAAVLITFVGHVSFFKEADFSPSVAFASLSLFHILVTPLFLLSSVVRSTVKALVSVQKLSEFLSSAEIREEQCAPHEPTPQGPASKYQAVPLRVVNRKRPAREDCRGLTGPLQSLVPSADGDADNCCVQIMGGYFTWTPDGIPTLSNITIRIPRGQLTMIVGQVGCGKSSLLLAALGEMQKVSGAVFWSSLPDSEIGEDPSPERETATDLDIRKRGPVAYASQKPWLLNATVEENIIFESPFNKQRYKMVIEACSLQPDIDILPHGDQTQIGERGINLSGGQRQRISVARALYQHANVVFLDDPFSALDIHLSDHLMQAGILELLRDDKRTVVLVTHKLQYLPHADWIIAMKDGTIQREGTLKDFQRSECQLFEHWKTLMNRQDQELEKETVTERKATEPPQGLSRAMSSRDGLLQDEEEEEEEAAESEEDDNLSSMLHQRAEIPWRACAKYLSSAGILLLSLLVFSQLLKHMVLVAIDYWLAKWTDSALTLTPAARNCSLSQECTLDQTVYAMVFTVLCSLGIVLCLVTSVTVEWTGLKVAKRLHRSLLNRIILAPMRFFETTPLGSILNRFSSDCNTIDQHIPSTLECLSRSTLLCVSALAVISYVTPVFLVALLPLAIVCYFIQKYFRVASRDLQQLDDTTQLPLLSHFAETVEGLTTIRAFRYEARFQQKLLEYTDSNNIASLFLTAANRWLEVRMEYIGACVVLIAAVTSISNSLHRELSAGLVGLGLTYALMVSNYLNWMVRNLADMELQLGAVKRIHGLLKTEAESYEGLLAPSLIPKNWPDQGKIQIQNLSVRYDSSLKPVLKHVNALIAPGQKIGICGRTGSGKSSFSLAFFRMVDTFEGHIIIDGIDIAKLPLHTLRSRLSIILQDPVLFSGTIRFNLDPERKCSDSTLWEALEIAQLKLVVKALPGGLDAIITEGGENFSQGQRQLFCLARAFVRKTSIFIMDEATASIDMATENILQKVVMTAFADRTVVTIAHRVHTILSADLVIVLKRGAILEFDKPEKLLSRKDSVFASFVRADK
UniProt Q14654, whole entry G334D partner: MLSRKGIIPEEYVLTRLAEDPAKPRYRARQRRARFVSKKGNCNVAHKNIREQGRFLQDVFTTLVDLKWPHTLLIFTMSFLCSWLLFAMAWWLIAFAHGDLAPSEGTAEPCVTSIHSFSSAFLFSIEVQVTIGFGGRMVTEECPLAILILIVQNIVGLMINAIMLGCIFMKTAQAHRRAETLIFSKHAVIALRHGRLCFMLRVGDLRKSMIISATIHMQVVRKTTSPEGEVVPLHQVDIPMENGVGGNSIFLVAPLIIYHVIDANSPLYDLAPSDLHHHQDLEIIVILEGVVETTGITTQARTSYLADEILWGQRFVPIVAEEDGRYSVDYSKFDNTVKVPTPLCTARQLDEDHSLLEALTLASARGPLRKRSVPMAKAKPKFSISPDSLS

How the values were obtained:
[1] = molecular target: T1, SUR1-Y1353*,K2A/Kir6.2 (Homo sapiens, UniProt Q09428, K1384A/Y1353X); test: Nucleotide wash-out (dissociation) time course; assay type: binding; conditions: with Mg2+, tested form: Mg2+
Excerpt: To prevent accumulation of fluorescent nucleotides in the bath, FluoroDishes were perfused with either (in mM) 140 KCl, 20 NaCl, 10 MgCl2, 10 HEPES pH 7.2 with NaOH or 140 KCl, 20 NaCl, 1 EDTA, 10 HEPES pH 7.2 with NaOH using a peristaltic pump (Ismatec; Wertheim, Germany). Unroofed membranes were directly perfused with nucleotides using an 8-channel µFlow perfusion system (ALA Scientific Instruments; Farmingdale, NY). Solution change with the µFlow was rapid (τ = 0.73 s±0.02 s, n=5) as measured from single exponential fits to wash-out of 50 µM tetramethylrhodamine-5-maleimide (TMRM) after switching to a solution with no TMRM. TMRM was excited with a 565 nm LED with a D540/25X band-pass filter (Chroma) and DM565 dichroic mirror (Chroma). […] Solution exchange was also monitored during experiments with TNP-nucleotides by examining the emission spectrum of a background region in each image. […]
To measure the time course of nucleotide unbinding, the fluorescence at the TNP-nucleotide peak (usually around 560 nm) was plotted as a function of time after exchanging to a zero-nucleotide solution, as following the time course of the rise in ANAP fluorescence was complicated by photobleaching. After complete wash out of nucleotides, the fluorescence at 560 nm was non-zero, as the shoulder of the ANAP emission spectrum extends into the range of wavelengths at which TNP-nucleotides emit. […]

[2] = system: SUR1-Y1353*/Kir6.2; test: Nucleotide wash-out (dissociation) time course; assay type: binding, Homo sapiens; conditions: with Mg2+, tested form: Mg2+
[3] = system: SUR1-T1397*/Kir6.2 (binding) and SUR1-T1397*/Kir6.2-G334D (current); test: Simultaneous fit of binding and current activation with gating models; conditions: tested form: Mg2+; for E / KA: L = 0.52
[4] = molecular target: SUR1/Kir6.2-G334D (Homo sapiens, UniProt Q09428); test: Current activation in inside-out patches; assay type: biochemical; conditions: tested form: Mg2+; for EC50: read-out: EC50 (current activation)
Protocol: Currents were recorded from inside-out membrane patches excised from transfected HEK-293T cells. Pipettes were pulled to a resistance of 1–5 MΩ and filled with an extracellular solution containing (in mM) 140 KCl, 1.2 MgCl2, 2.6 CaCl2, and 10 HEPES, pH 7.4 or 140 KCl, 1 EGTA, 10 HEPES, pH 7.3. The intracellular (bath) solutions contained either (in mM) 107 KCl, 2 MgCl2, 1 CaCl2, 10 EGTA, and 10 HEPES, pH 7.2 for experiments showing nucleotide-dependent activation or 140 KCl, 1 EDTA, 1 EGTA, 10 HEPES pH 7.3 for experiments showing nucleotide-dependent inhibition. Nucleotides were added as indicated. Patches were perfused with an 8-channel µFlow perfusion system. Data were acquired at a holding potential of −60 mV using an Axopatch 200B amplifier and Digidata 1322A digitizer with pClamp 9.0 software (Molecular Devices). Currents were digitized at 10 kHz and low-pass filtered at 1 kHz. KATP channels run down in excised patches (reviewed by Proks et al.) ([Proks et al., 2016]). For inhibitory concentration-response relationships, rundown was corrected by alternating test nucleotide solutions with nucleotide-free (control) solutions and expressing the test currents as a fraction of the average of the control currents before and after the test solution. […] For activation concentration-responses, the same protocol was used, but test concentrations were alternated with a saturating concentration (1 mM) of MgADP ([Proks et al., 2010]).
Currents were leak corrected by subtracting the remaining current after complete rundown.

[5] = system: SUR1-T1397*/Kir6.2-G334D; test: Current activation in inside-out patches; assay type: biochemical, Homo sapiens; conditions: read-out: EC50 (current activation); mean ± SEM of fits of equation 5 to individual experiments; tested form: Mg2+
Protocol: Currents were recorded from inside-out membrane patches excised from transfected HEK-293T cells. Pipettes were pulled to a resistance of 1–5 MΩ and filled with an extracellular solution containing (in mM) 140 KCl, 1.2 MgCl2, 2.6 CaCl2, and 10 HEPES, pH 7.4 or 140 KCl, 1 EGTA, 10 HEPES, pH 7.3. The intracellular (bath) solutions contained either (in mM) 107 KCl, 2 MgCl2, 1 CaCl2, 10 EGTA, and 10 HEPES, pH 7.2 for experiments showing nucleotide-dependent activation or 140 KCl, 1 EDTA, 1 EGTA, 10 HEPES pH 7.3 for experiments showing nucleotide-dependent inhibition. Nucleotides were added as indicated. Patches were perfused with an 8-channel µFlow perfusion system. Data were acquired at a holding potential of −60 mV using an Axopatch 200B amplifier and Digidata 1322A digitizer with pClamp 9.0 software (Molecular Devices). Currents were digitized at 10 kHz and low-pass filtered at 1 kHz. KATP channels run down in excised patches (reviewed by Proks et al.) ([Proks et al., 2016]). For inhibitory concentration-response relationships, rundown was corrected by alternating test nucleotide solutions with nucleotide-free (control) solutions and expressing the test currents as a fraction of the average of the control currents before and after the test solution. […]

[6] = molecular target: T1, SUR1-Y1353*,K2A/Kir6.2; test: FRET binding of TNP-nucleotides to ANAP-labeled KATP in unroofed membrane fragments; conditions: with Mg2+, tested form: Mg2+
Protocol: (§1) Unroofed membranes were prepared using a modification of a protocol from the Heuser laboratory ([Heuser, 2000]; [Usukura et al., 2012]; [Zagotta et al., 2016]). Briefly, a coverslip containing adherent cells was removed from the cell culture medium and a small piece (0.5–1 cm) was broken off using jewelers forceps (#5) and washed in phosphate buffered saline (PBS, Thermo Fisher Scientific) diluted 1:3 in deionized water. Cells were exposed 3 × 10 s to a solution of 0.01% poly-L-lysine (Sigma) with intervening washes in diluted PBS to adhere them more firmly to the coverslips. The coverslip fragment was then placed in a 30 mm culture dish filled with 2–3 mL of 1/3X PBS and sonicated very briefly (~100 ms) using a probe sonicator (Vibra-cell; Newtown, CT), leaving behind adherent plasma membrane and sometimes additional cellular material. The unroofed fragments in our experiments were sometimes visible under bright-field illumination, a potential result of our modified ‘unroofing’ procedure. Morphologically, such cell fragments resemble the ‘partially unroofed’ cells identified by Usukura et al. ([Usukura et al., 2012]) Cells cultured on poly-D-lysine coated FluoroDishes were unroofed in diluted PBS with no additional poly-L-lysine treatment. This procedure yielded a higher percentage of completely unroofed plasma membranes (i.e. nearly invisible with brightfield illumination).
(§2) Unroofed membrane fragments were imaged directly on FluoroDishes (FD35-PDL-100, World Precision Instruments) or on broken coverslips placed in a FluoroDish (FD3510, World Precision instruments) using a Nikon TE2000-U microscope equipped with a 40x (S Fluor, 1.3 NA; Nikon, Kingston Upon Thames, UK) or 100x (Apo TIRF, 1.49 NA, Nikon) oil-immersion objective and low-fluorescence immersion oil (MOIL-30, Olympus; Southend-on-Sea, UK) or a 60x water immersion objective (Plan Apo VC, 1.20 NA, Nikon). ANAP was excited using a ThorLabs LED source (LED4D067) at 385 nm connected to the microscope using a liquid light guide in series with a 390/18 nm band-pass filter (MF390-18, ThorLabs; Newton, NJ) and MD416 dichroic (ThorLabs). For imaging, emitted light was filtered through a 479/40 nm band-pass filter (MF479-40, ThorLabs). GFP-tagged constructs were imaged using a similar setup with excitation at 490 nm, a 480/40 band-pass excitation filter (Chroma; Bellows Falls, VT), a DM505 dichroic mirror (Chroma), and 510 nm long-pass emission filter (Chroma). All images were acquired using a PIXIS 400B CCD camera (Princeton Instruments; Trenton, NJ). For spectroscopy, ANAP was excited as above, but emitted light was passed through a 400 nm long-pass filter (FEL0400, ThorLabs) and directed through the slit of an Isoplane 160 spectrometer (300 g/mm grating; Princeton Instruments) in series with the camera. The acquired images retained spatial information in the y-dimension, with the x-dimension replaced by wavelength (Figure 1—figure supplement 1a). Exposure times were typically 100 ms for brightfield images, 1–10 s for steady-state spectra and 1–5 s for time-course experiments.
(§3) To prevent accumulation of fluorescent nucleotides in the bath, FluoroDishes were perfused with either (in mM) 140 KCl, 20 NaCl, 10 MgCl2, 10 HEPES pH 7.2 with NaOH or 140 KCl, 20 NaCl, 1 EDTA, 10 HEPES pH 7.2 with NaOH using a peristaltic pump (Ismatec; Wertheim, Germany). Unroofed membranes were directly perfused with nucleotides using an 8-channel µFlow perfusion system (ALA Scientific Instruments; Farmingdale, NY). Solution change with the µFlow was rapid (τ = 0.73 s±0.02 s, n=5) as measured from single exponential fits to wash-out of 50 µM tetramethylrhodamine-5-maleimide (TMRM) after switching to a solution with no TMRM. TMRM was excited with a 565 nm LED with a D540/25X band-pass filter (Chroma) and DM565 dichroic mirror (Chroma). Emitted light was collected through a D605/55M band-pass filter (Chroma). […]

[7] = molecular target: SUR1-Y1353*/Kir6.2 (NBS2 of SUR1) (Homo sapiens, UniProt Q09428, Y1353X); test: as above; conditions: with Mg2+, tested form: Mg2+
Protocol: as §1, §2, §3

[8] = system: SUR1-Y1353*/Kir6.2-G334D; test: as above; conditions: with Mg2+, tested form: Mg2+
[9] = molecular target: SUR1-T1397*/Kir6.2 (Homo sapiens, UniProt Q09428, T1397X); test: as above; conditions: with Mg2+, tested form: Mg2+
[10] = model (b): binding to a single SUR1 sufficient
[11] = model (c): binding to two SUR1 subunits required
[12] = model (e): all four SUR1 subunits must be occupied
[13] = Equation 5 fit to combined data
[14] = mean ± SEM of fits of equation 5 to individual experiments
[15] = mean ± SEM of fits to individual experiments

SMILES: Nc1ncnc2c1ncn2[C@@H]1O[C@H](COP(=O)(O)OP(=O)(O)O)[C@H]2OC3(O[C@H]21)C([N+](=O)[O-])=CC(=[N+]([O-])[O-])C=C3[N+](=O)[O-] (stereo partly shown)
- τ of dissociation (single exponential) ([1]; fit to combined data): 13.5 s
- t0.5 (time to 50% dissociation) ([1]; mean ± SD): 9.3 ± 2.1 s
- t0.5 (time to 50% dissociation) ([2]; in the presence of 340 µM diazoxide, mean ± SD): 36.9 ± 9.4 s
- t0.5 (time to 50% dissociation) ([2]; in the presence of 500 µM tolbutamide, mean ± SD): 4.5 ± 1.5 s
- t0.5 (time to 50% dissociation) ([2]; no drug, mean ± SD of individual fits): 14.7 s and 14.7 ± 4.2 s
- τ of dissociation (single exponential) ([2]; fit to combined data): 21.3 s
- E (factor by which binding favors activation) ([3]; MWC model, L fixed to 0.52): 2.2 ± 0.2 and 2.2
- KA (equilibrium association constant) ([3]; MWC model, L fixed to 0.52): 58000 M⁻¹
- E [3, 10]: 1
- KA [3, 10]: 53000 M⁻¹
- E [3, 11]: 1
- KA [3, 11]: 89000 M⁻¹
- KA ([3]; model (d): binding to three SUR1 subunits required): 54000 M⁻¹
- E [3, 12]: 279.2
- KA [3, 12]: 53000 M⁻¹
- h (current activation) [4, 13]: 0.9 ± 0.1
- h (current activation) [4, 14]: 1.1 ± 0.2
- EC50 [4, 13]: 22.1 µM
- EC50 [4, 14]: 20.6 µM
- EC50 [5]: 7.3 µM
- EC50 ([6]; fit to combined data): 12.5 µM
- Emax ([6]; fit to combined data): 0.96 ± 0.04
- h ([6]; fit to combined data): 0.9 ± 0.1
- EC50 [6, 15]: 18.6 µM
- Emax [6, 15]: 0.97 ± 0.03
- h [6, 15]: 0.97 ± 0.07
- Emax ([7]; fit of Equation 1 to combined data, ± standard error of fit): 0.99 ± 0.02
- EC50 ([7]; fit to combined data): 4.8 µM
- h ([7]; fit to combined data): 0.8 ± 0.1
- Emax ([7]; mean ± SEM of fits of equation 1 to individual experiments): 0.99 ± 0.01
- EC50 [7, 15]: 5.5 µM
- h [7, 15]: 0.77 ± 0.03
- fold lower binding EC50 than MgTNP-ATP [7]: ~ 7 fold
- EC50 ([8]; fit to combined data): 7.7 µM
- Emax ([8]; fit to combined data): 1.00 ± 0.04
- EC50 [8, 15]: 8.2 µM
- Emax [8, 15]: 1.01 ± 0.04
- EC50 ([9]; fit to combined data): 10.6 µM
- Emax ([9]; fit to combined data): 1.0 ± 0.01
- h ([9]; fit to combined data): 0.97 ± 0.06
- EC50 [9, 15]: 10.8 µM
- Emax [9, 15]: 1.01 ± 0.005
- h [9, 15]: 0.98 ± 0.05

Values joined by “and” are separate entries in the source; they are usually repeats but may differ in a detail not shown here. Equal entries are not always repeated. Where two headings read alike, the source gives them in different places.
